Literature values as cited in publication PMC2747801 (European journal of pharmaceutical sciences : official …, 2009).

Legend:
[1] = cited from earlier work
[2] = mouse, mdr1a(−/−), footnote o ref Cisternino et al. 2004; cited from earlier work

| Structure (SMILES) | logPS(obs) ([1]; rat ref Murakami et al. 2000) [mL/g/s] | logPS(obs) [2] [mL/g/s] | logPS(obs) ([1]; rat, in vivo) [mL/g/s] |
| --- | --- | --- | --- |
| CC[C@]1(O)C[C@@H]2CN(CCc3c([nH]c4ccccc34)[C@@](C(=O)OC)(c3cc4c(cc3OC)N(C)[C@H]3[C@@](O)(C(=O)OC)[C@H](OC(C)=O)[C@]5(CC)C=CCN6CC[C@]43[C@@H]65)C2)C1 [vinblastine] | −3.49 | −3.31 |  |
| Cc1cc2c(s1)Nc1ccccc1N=C2N1CCN(C)CC1 [olanzapine] |  |  | −1.29 |
| Cc1nc2n(c(=O)c1CCN1CCC(c3noc4cc(F)ccc34)CC1)CCCC2 [risperidone] |  |  | −1.81 |

Read-outs that look alike come from different tables or passages of the source.
